Results as given in patent publication US20240002445A1, “TYROSYL-LOCK PEPTIDES” (The United States of America,as represented by the …, priority 2020, published 2024).

Protein sequences, listed by entry. Tags and fused reporters are not part of them.
UniProt Q9NUW8, whole entry: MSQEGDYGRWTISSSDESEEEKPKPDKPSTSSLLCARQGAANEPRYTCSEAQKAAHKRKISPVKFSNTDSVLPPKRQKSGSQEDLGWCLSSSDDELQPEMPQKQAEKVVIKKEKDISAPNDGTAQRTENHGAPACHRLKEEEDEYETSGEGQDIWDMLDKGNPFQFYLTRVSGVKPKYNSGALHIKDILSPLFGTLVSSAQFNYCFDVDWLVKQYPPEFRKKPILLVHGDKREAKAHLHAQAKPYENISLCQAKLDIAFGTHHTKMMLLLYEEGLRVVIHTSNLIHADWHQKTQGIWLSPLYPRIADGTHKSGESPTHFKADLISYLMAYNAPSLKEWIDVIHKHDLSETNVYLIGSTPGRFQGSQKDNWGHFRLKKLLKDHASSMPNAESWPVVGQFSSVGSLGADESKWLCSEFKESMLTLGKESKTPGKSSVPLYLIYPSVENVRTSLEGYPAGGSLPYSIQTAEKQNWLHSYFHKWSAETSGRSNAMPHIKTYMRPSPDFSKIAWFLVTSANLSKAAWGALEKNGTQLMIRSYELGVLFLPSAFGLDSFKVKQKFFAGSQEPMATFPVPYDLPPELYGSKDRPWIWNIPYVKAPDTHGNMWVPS

Molecular target: T1, FL-TDP1 (Homo sapiens, UniProt Q9NUW8)
T1 construct: either full-length TDP1 or Δ1-147TDP1 was diluted to 1×
Assay: FL-TDP1 FRET assay without TCEP (recifin A and analogues)
Format: biochemical
Conditions: IC50 μM (FL-TDP1 inhibitory activity), 1 nM FL-TDP1, 0.25 μM substrate, T=15 min, 1XPBS pH 7.4, 80 mM KCl, high-test concentration 20 μM
Experimental: For these FRET assays, TCEP was omitted from the reaction buffer. Peptides were evaluated for FL-TDP1 inhibitory activity using an 8-pt, 10^0.5 dilution series at a high-test concentration of 20 μM. RXN conditions: 1 nM FL-TDP1, 0.25 μM substrate, T=15 min.; rxn buffer (1XPBS pH 7.4, 80 mM KCl) (-TCEP). See FIGS. 21A and 21B and FIG. 22.

CC[C@H](C)[C@@H]1NC(=O)[C@H](Cc2ccc(O)cc2)NC(=O)[C@H](CC(N)=O)NC(=O)[C@H](CCC(N)=O)NC(=O)[C@@H]2CSSC[C@@H]3NC(=O)[C@H](CCC(=O)O)NC(=O)[C@H](Cc4c[nH]c5ccccc45)NC(=O)[C@@H]4CCCN4C(=O)[C@@H]4CCCN4C(=O)[C@@H]4CCCN4C(=O)[C@H](CCC(N)=O)NC(=O)[C@H](CC(C)C)NC(=O)[C@H](CCC(=O)O)NC(=O)[C@H](Cc4ccccc4)NC(=O)[C@H](CO)NC(=O)[C@H](Cc4ccc(O)cc4)NC(=O)[C@H](CO)NC(=O)CNC(=O)[C@H](CCCNC(=N)N)NC(=O)CNC(=O)[C@H](Cc4ccccc4)NC(=O)[C@H](CSSC[C@@H](C(=O)O)NC(=O)[C@H](CCC(N)=O)NC(=O)[C@H](Cc4ccc(O)cc4)NC3=O)NC(=O)[C@H](CSSC[C@H](NC(=O)[C@H](Cc3ccccc3)NC(=O)[C@H](C)NC(=O)[C@H](CCC(=O)O)NC(=O)[C@@H]3CCC(=O)N3)C(=O)N[C@@H](Cc3ccc(O)cc3)C(=O)N[C@@H](CO)C(=O)N[C@@H](CC(=O)O)C(=O)N[C@@H](CCCNC(=N)N)C(=O)N[C@@H](C)C(=O)N2)NC(=O)[C@H](CC(=O)O)NC(=O)[C@@H]2CCCN2C(=O)[C@H]([C@@H](C)CC)NC(=O)[C@H](CO)NC(=O)CNC1=O [Ala10, [Ala10]recifin]
IC50: > 10 µM
